From PubChem BioAssay AID602141 (Sanford-Burnham Center for Chemical Genomics, 2011) come the findings set out here.

The list shows a part of the results, in another mix than the full data. Activity calls are given as the source filed them.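 The calls were made as follows: active = corrected activity change at or below -50% at 5 µM; inactive = the rest.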

A short description of this experiment: cytotoxicity in KKLEB CF airway cells, primary screen, cytotoxicity control for CF NF-kB inhibitor project, cell-based, uHTS, fluorescence assay plates (AID 602141). To be noted: KKLEB CF airway cells viability, ATPlite luminescence, overnight; at 5 µM; active compounds read low; cells stimulated with P. aeruginosa culture filtrate. In general terms: Cellular ATP, detected with luciferase, serves as a proxy for viable cell number.
Take `CP(=S)(Nn1cnnc1)Oc1ccccc1` (configuration not stated): the activity change (cytotoxicity) was inactive: 3.9%.
Regarding `CP(=O)(Nc1ccccc1Br)Oc1ccccc1` (configuration not stated), the activity change (cytotoxicity) was inactive: -3.2%.
Regarding `COc1ccccc1OP(C)(=O)Nc1ccccc1` (configuration not stated), the activity change (cytotoxicity) was inactive: 1.8%.
The figure for `CCOC(=O)c1ccc(NP(C)(=O)Oc2ccc(OC)cc2)cc1` (configuration not stated) is inactive: 11.8%; for `O=[N+]([O-])c1cc([N+](=O)[O-])c(O)c([N+](=O)[O-])c1.c1ccc(Oc2ccncc2)cc1` it is inactive: 6%.
Consider `CCOP(C)(=S)SCC(=O)NC(C)C(=O)O` (configuration not stated), for which the activity change (cytotoxicity) was inactive: -3.9%.
Turning to `CP(=O)(Nc1ccccn1)Oc1ccc(Cl)cc1` (configuration not stated), the activity change (cytotoxicity) was inactive: -4%.
For the compound `CP(=O)(Oc1ccccc1)OC(c1ccccc1)C(F)(F)F` (configuration not stated), the activity change (cytotoxicity) was inactive: 10.2%.
On to `Cc1ccc(Nc2c([N+](=O)[O-])cc([N+](=O)[O-])cc2[N+](=O)[O-])cc1`, for which the activity change (cytotoxicity) is inactive: 0.5%.
`Cc1cccc(C)c1OP(C)(=O)Nc1ccc(SC(F)(F)F)cc1` (configuration not stated): the activity change (cytotoxicity) is inactive: -1.7%.
Turning to `CP(=O)(Nc1ccc(SC(F)(F)F)cc1)Oc1ccc(Cl)cc1` (configuration not stated), the activity change (cytotoxicity) is inactive: -27%.
The figure for `Cc1cc(C)cc(OP(C)(=O)Nc2ccc(SC(F)(F)F)cc2)c1` (configuration not stated) is inactive: 2%.
The value for `CCc1ccc(OP(C)(=O)N2CCN(c3ccc([N+](=O)[O-])cc3)CC2)cc1` (configuration not stated) was inactive: 2.4%; that for `CP(=O)(NC(=O)Nc1ccccc1)Oc1ccccc1` (configuration not stated) was inactive: 2.7%; that for `CCN(CC)CCCOC(=O)C(O)(c1ccccc1)c1ccccc1` was inactive: 7.9%.
For the compound `Cc1ccc(NP(C)(=O)Oc2ccccc2)c(C)c1` (configuration not stated), the activity change (cytotoxicity) was inactive: 0.9%.
In the case of `COc1ccccc1OP(C)(=O)Nc1ccc(C)cc1` (configuration not stated), the activity change (cytotoxicity) is inactive: -4.9%.
On to `CCOC(=O)c1ccc(NP(C)(=O)Oc2ccccc2)cc1` (configuration not stated), for which the activity change (cytotoxicity) is inactive: -29.4%.
As for `Cc1cc(C)cc(OP(C)(N)=O)c1` (configuration not stated), the activity change (cytotoxicity) is inactive: 9.6%.
As to `COc1ccc(OP(C)(=O)Nc2cccc(F)c2)cc1` (configuration not stated), the activity change (cytotoxicity) is inactive: -10.3%.
As for `COc1ccccc1OP(C)(=O)Nc1cc(Cl)ccc1C` (configuration not stated), the activity change (cytotoxicity) was inactive: -1.1%.
The value for `O=[N+]([O-])c1cc([N+](=O)[O-])c(Nc2cccnc2)c([N+](=O)[O-])c1` was inactive: 8.5%.
The value for `O=[N+]([O-])c1ccc2c(c1)C=Nc1ccccc1O2` was inactive: -40.8%.
For `Cc1cccc(C)c1OP(C)(N)=O` (configuration not stated), the activity change (cytotoxicity) is inactive: 9.7%.
In the case of `CC(C)(C)c1ccc(OP(C)(=O)Nc2ccc(SC(F)(F)F)cc2)cc1` (configuration not stated), the activity change (cytotoxicity) was inactive: -13%.
On to `CC1=NCCc2c1[nH]c1ccccc21.O=[N+]([O-])c1cc([N+](=O)[O-])c(O)c([N+](=O)[O-])c1`, for which the activity change (cytotoxicity) is inactive: -5.7%.
With `O=C(O)c1cccc(Nc2c([N+](=O)[O-])cc([N+](=O)[O-])cc2[N+](=O)[O-])c1`, the activity change (cytotoxicity) is inactive: -5.5%.
Consider `Cc1ccc(C)c(NP(C)(=O)Oc2ccccc2)c1` (configuration not stated), for which the activity change (cytotoxicity) was inactive: -13.4%.
Take `CP(=O)(Nc1cccc(Br)c1)Oc1ccccc1` (configuration not stated): the activity change (cytotoxicity) was inactive: 18.1%.
As to `Cc1cc(C)cc(OP(C)(=O)Nc2ccccn2)c1` (configuration not stated), the activity change (cytotoxicity) was inactive: -6.2%.
On to `COc1ccccc1OP(C)(=O)Nc1cccc(Br)c1` (configuration not stated), for which the activity change (cytotoxicity) was inactive: 13.5%.
Take `CCOC(=O)c1ccc(NP(C)(=O)Oc2cc(C)cc(C)c2)cc1` (configuration not stated): the activity change (cytotoxicity) was inactive: -7.6%.
The value for `Cc1cc(C)cc(OP(C)(=O)Nc2ccc(C)cc2C)c1` (configuration not stated) was inactive: 2.9%; that for `O=[N+]([O-])c1cc([N+](=O)[O-])c(-c2cnn(-c3ccccc3)c2)c([N+](=O)[O-])c1` was inactive: -23.4%.
On to `Cc1nc2ccc3ccccc3c2s1.O=[N+]([O-])c1cc([N+](=O)[O-])c(O)c([N+](=O)[O-])c1`, for which the activity change (cytotoxicity) was inactive: -15.3%.
For `O=[N+]([O-])c1cc([N+](=O)[O-])c(-n2nnc3ccccc32)c([N+](=O)[O-])c1`, the activity change (cytotoxicity) is inactive: 5%.
Take `CN(Cc1cccnc1)C(=O)COc1ccc(Cl)c(Cl)c1.O=[N+]([O-])c1cc([N+](=O)[O-])c(O)c([N+](=O)[O-])c1`: the activity change (cytotoxicity) was inactive: 2.7%.
Consider `COc1ccccc1OP(C)(=O)Nc1c(C)cccc1C` (configuration not stated), for which the activity change (cytotoxicity) is inactive: -4.9%.
`CN1CCCCC1COC(=O)C1(O)c2ccccc2CCc2ccccc21` (configuration not stated): the activity change (cytotoxicity) is inactive: -1.9%.
Turning to `CP(=O)(Nc1ccc(SC(F)(F)F)cc1)Oc1ccccc1` (configuration not stated), the activity change (cytotoxicity) is inactive: -7.9%.
The figure for `CCCOc1ccc(NP(C)(=O)Oc2ccc(Cl)cc2)cc1` (configuration not stated) is inactive: -1.1%; for `CCOC(=O)C(CC)C1=NC(C)(C)Cc2ccccc21.O=[N+]([O-])c1cc([N+](=O)[O-])c(O)c([N+](=O)[O-])c1` (configuration not stated) it is inactive: 6.7%; for `O=[N+]([O-])c1cc([N+](=O)[O-])c(Nc2nnnn2CCO)c([N+](=O)[O-])c1` it is inactive: 2.8%.
Regarding `CC1=C2N=C(C=C3N=C(C(C)=C4[N-][C@@](C)([C@@H]5N=C1[C@](C)(CCC(=O)NC[C@@H](C)OP(=O)([O-])O[C@H]1[C@@H](O)[C@@H](n6cnc7cc(C)c(C)cc76)O[C@@H]1CO)[C@H]5CC(N)=O)[C@@](C)(CC(N)=O)[C@@H]4CCC(N)=O)[C@@](C)(CC(N)=O)[C@@H]3CCC(N)=O)C(C)(C)[C@@H]2CCC(N)=O.[C-]#N.[Co+3]`, the activity change (cytotoxicity) was inactive: 12.3%.
`O=[N+]([O-])c1ccc(OP2(=O)COCCO2)cc1` (configuration not stated): the activity change (cytotoxicity) is inactive: 13.5%.
Take `Cc1cc(-c2cccc3ccccc23)c(C)cn1.O=[N+]([O-])c1cc([N+](=O)[O-])c(O)c([N+](=O)[O-])c1`: the activity change (cytotoxicity) is inactive: 6%.
Consider `O=[N+]([O-])c1cc([N+](=O)[O-])c(NCC2CCS(=O)(=O)C2)c([N+](=O)[O-])c1` (configuration not stated), for which the activity change (cytotoxicity) was inactive: -4.5%.
